The results in this text go back to PubChem BioAssay AID1671188 (National Center for Advancing Translational Sciences (NCATS), 2021).

Protein sequences, listed by entry. Tags and fused reporters are not part of them. Lines headed by an entry give the natural chain unless they say otherwise; changes in a name come on top.
UniProt Q8TD30: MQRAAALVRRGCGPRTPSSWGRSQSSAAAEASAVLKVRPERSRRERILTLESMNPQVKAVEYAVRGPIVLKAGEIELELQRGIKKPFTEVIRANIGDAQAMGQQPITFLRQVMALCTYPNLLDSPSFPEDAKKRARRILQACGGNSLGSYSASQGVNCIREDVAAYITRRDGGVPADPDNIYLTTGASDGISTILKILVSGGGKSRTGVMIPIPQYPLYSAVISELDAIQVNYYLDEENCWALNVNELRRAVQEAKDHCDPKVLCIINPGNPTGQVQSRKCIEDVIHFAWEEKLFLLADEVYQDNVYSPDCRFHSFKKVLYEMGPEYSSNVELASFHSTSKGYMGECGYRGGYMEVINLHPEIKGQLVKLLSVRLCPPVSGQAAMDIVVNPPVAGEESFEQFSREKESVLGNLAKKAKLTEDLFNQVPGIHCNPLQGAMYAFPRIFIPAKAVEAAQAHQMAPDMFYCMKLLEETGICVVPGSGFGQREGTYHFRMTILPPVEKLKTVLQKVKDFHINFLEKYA

This is a selection; strong and weak results do not stand in their true shares. Inconclusive results are not listed. The source made the active and inactive calls. Calls come from the whole dose curve; as a rule, active = well fitted inhibition curve with a large enough effect; inconclusive = small, poorly fitted or top-dose-only effect; inactive = flat fitted curve, though single readings scatter.
% is set by controls: 0 for no effect and ±100 for the full control effect.

The target of this test is Alanine aminotransferase 2 (Homo sapiens) (UniProt Q8TD30). In words: Primary qHTS assay for inhibitors of Glutamate pyruvate transaminase 2 (GPT2). Note: nearly all actives have a fitted effect of over 60% in size. The following applies: Recombinant GPT2, coupled pyruvate oxidase/HRP Amplex Red fluorescence; at 88.5 µM (top of the series) unless noted. On the procedure:
Assay Provider: Zhenghe John Wang Ph.D.
Case Western Reserve University, Cleveland OH
Glutamate pyruvate transaminase 2 (GPT2) catalyzes the reversible transamination of glutamate and pyruvate to provide a-ketoglutarate and alanine. We have optimized an assay for GPT2 enzymatic activity that couples pyruvate formation to detection of fluorescence using an established pyruvate oxidase/horseradish peroxidase / Amplex Red system.
Screening conditions were 250uM a-KG, 2mM L-alanine, and 10ng/uL GPT2 in […] of solution; 10uL of Amplex reaction mix (outlined below) were added so that final concentrations of Amplex reagents in 50uL were 0.2mM ThPP, 0.2U/mL PO and HRP, and 50uM Amplex.
NOTE: The volume of GPT2 in the system depends on the activity of it. The activity is different every batch. You need to test the activity before the assay. For full plate assay with automation, plate 20uL of GPT2 buffer to pin into, then add 10uL of GPT2 dilution followed immediately by 10uL of substrate dilution. 2 Columns of the plate were devoted to GPT2 buffer ([…] PH7.5, 0.0001% Tween) + 50uM AOA (known GPT2 inhibitor) to serve as a positive control. Complete the assay as normal. Amplex-red buffer: […] PH7.5, 1 mM EDTA, 1 mM MgCl2.
1. Combine a-KG and L-alanine at desired concentrations and incubate for at least 10 minutes at 37C. Stocks of L-alanine and a-KG are diluted in distilled water. However, the stocks were diluted in GPT2 buffer for the assay.
2. Prepare GPT2 dilution at the desired concentration in GPT2 buffer.
3. Plate 40uL of GPT2 dilution with 40uL of substrate dilution and let incubate for 30 minutes at room temperature.
4. Add 20uL of Amplex reaction mix prepared as follows: 1.5uL 200U/mL Horseradish Peroxidase, 200mM Thiamine Pyrophosphate, 200U/mL Pyruvate Oxidase; 7.5uL 10mM Amplex Red; 288uL Amplex Buffer.
5. Incubate for 30 minutes at room temperature in the dark, then image using AM_Amplex_Fluorescence on plate reader nearest the window.
As for `CN(C(=O)Cc1ccccc1)[C@@H]1CC[C@]2(CCCO2)C[C@H]1N1CCCC1`, the activity change, negative = inhibition was inactive: -1.58% [at 57.7 µM]. Take `CN(C(=O)Cc1ccc(Cl)c(Cl)c1)[C@H]1CC[C@@]2(CCCO2)C[C@@H]1N1CCCC1`: the activity change, negative = inhibition is inactive: -1.46% [at 57.7 µM]. For the compound `CN(CCCl)Cc1cc(Cl)c(NC2=NCCN2)c(Cl)c1`, the activity change, negative = inhibition is inactive: -3.16% [at 57.7 µM].

As for `Cc1cc([N+](=O)[O-])cc([N+](=O)[O-])c1O`, the activity change, negative = inhibition was inactive: -2.41%. As to `CNCc1cc2ccccc2o1`, the activity change, negative = inhibition was inactive: 0.634%. With `CCNC(C)Cc1ccc2c(c1)OCO2` (stereo unspecified) the figure was inactive: 4.26%.
